In general, inhibition refers to the relative decrease from the control value, in per cent.

Amino acid sequences for entries named in this document (tags omitted).
UniProt P53041, whole entry: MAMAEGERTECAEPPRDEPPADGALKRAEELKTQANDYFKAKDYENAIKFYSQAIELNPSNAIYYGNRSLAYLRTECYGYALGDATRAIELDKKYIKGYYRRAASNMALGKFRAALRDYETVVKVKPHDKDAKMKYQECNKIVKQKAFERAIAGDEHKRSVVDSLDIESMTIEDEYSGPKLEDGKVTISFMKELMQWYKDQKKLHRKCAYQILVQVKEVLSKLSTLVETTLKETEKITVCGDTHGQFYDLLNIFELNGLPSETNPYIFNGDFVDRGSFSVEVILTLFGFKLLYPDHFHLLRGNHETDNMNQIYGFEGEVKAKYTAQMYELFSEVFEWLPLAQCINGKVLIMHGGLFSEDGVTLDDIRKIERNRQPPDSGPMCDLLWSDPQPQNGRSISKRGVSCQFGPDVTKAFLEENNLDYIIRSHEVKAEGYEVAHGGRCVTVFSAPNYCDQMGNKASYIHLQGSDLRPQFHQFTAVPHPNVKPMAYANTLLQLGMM

This is a selection; strong and weak results do not stand in their true shares. Some salts or complexes appear as unconnected parts, following the source record. Active and inactive are the calls of the source.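 The calls were made as follows: active = inhibition above the campaign's mean inhibition across all tested compounds plus 3 SD (cut at about 9.5% in these data); inactive = the rest.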

In this experiment the target is Serine/threonine-protein phosphatase 5 (Homo sapiens) (UniProt P53041). The experiment is described as follows: inhibition of human PP5 catalytic activity – biochemical, fluorescence, primary screen (AID 1987).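 Also: 0% = DMSO only and 100% = 100 µM cantharidin control.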 The conditions noted are these: purified PP5c, OMFP substrate fluorescence; at 6.7 µM; stronger effect = higher value.
Take `COc1ccccc1OP(C)(=O)Nc1ccccc1Br` (stereo unspecified): the inhibition was inactive: 0.26%.

Consider `CC(C)(C)c1ccc(OP(C)(=O)O)cc1`, for which the inhibition is inactive: -0.59%.

On to `CP(=O)(Nc1ccc(Cl)cc1)Oc1ccc(F)cc1` (stereo unspecified), for which the inhibition was inactive: -0.78%.

Regarding `CN(C)C(=O)c1c([N+](=O)[O-])cc([N+](=O)[O-])cc1[N+](=O)[O-]`, the inhibition is inactive: -2.28%.

As to `CCN(CC)CC(O)COC(=O)C(O)(c1ccccc1)C1CCCCC1` (stereo unspecified), the inhibition is inactive: 2.65%.

Take `COc1ccc(OP(C)(=O)Nc2ccc(Br)cc2)cc1` (stereo unspecified): the inhibition is inactive: 0.05%.

Turning to `COc1ccccc1OP(C)(=O)Nc1c(C)n(C)n(-c2ccccc2)c1=O` (stereo unspecified), the inhibition was inactive: 2.82%.

With `O=C(OCCCN1CCCC1)C(O)(c1ccccc1)C1CCCCC1` (stereo unspecified), the inhibition is inactive: -0.68%.

For `CP(=O)(Oc1ccccc1)N1CCOC1=O` (stereo unspecified), the inhibition is inactive: -0.03%.

Take `CCc1ccc(OP(C)(=O)Nc2cccnc2)cc1` (stereo unspecified): the inhibition is inactive: -1.38%.

`Nc1ccc2c(ccc3cccnc32)n1.O=[N+]([O-])c1cc([N+](=O)[O-])c(O)c([N+](=O)[O-])c1`: the inhibition was inactive: -0.59%.

Regarding `CCOC(=O)c1ccc(NP(C)(=O)Oc2ccc(Cl)cc2)cc1` (stereo unspecified), the inhibition was inactive: 4.97%.

In the case of `CP(=O)(OC12CC3CC(CC(C3)C1)C2)OC12CC3CC(CC(C3)C1)C2`, the inhibition was inactive: 0.7%.

In the case of `Cc1nc2ccc3ccccc3c2o1.O=[N+]([O-])c1cc([N+](=O)[O-])c(O)c([N+](=O)[O-])c1`, the inhibition is inactive: 1.11%.

Consider `CP(=O)(Nc1ccc(Cl)cc1Cl)Oc1ccccc1` (stereo unspecified), for which the inhibition is inactive: -1.59%.

Take `CP(=O)(OCCOc1ccccc1)OCCOc1ccccc1`: the inhibition was inactive: 0.82%.

With `Cc1cc(C)cc(OP(C)(=O)Nc2cccc(C(F)(F)F)c2)c1` (stereo unspecified), the inhibition was inactive: 1.15%.

On to `COc1ccccc1OP(C)(=O)Nc1ccc(C)c(C)c1` (stereo unspecified), for which the inhibition is inactive: 2.95%.

As to `COc1ccc(OP(C)(=O)Nc2ccccc2Br)cc1` (stereo unspecified), the inhibition was inactive: 1.42%.

For the compound `Cc1c(NP(C)(=O)Oc2ccc(C(C)C)cc2)c(=O)n(-c2ccccc2)n1C` (stereo unspecified), the inhibition is inactive: 0.82%.

`O=[N+]([O-])c1cc([N+](=O)[O-])c(Nc2ccccn2)c([N+](=O)[O-])c1`: the inhibition was inactive: 1.48%.

As to `CP(=O)(Nc1ccccn1)Oc1ccccc1` (stereo unspecified), the inhibition is inactive: -1.01%.

On to `COc1ccccc1OP(C)(=O)Nc1ccc(C)cc1C` (stereo unspecified), for which the inhibition is inactive: 2.28%.

Take `CCc1ccc(OP(C)(=O)O)cc1`: the inhibition was inactive: -1.35%.

In the case of `COc1ccccc1OP(C)(=O)Nc1ccc(Br)cc1` (stereo unspecified), the inhibition is inactive: 1.25%.

As for `COc1ccc(OP(C)(=O)Nc2ccccn2)cc1` (stereo unspecified), the inhibition is inactive: 0.48%.

As for `CN(C)CCOC(=O)C(O)(c1ccccc1)C1CCCC1` (stereo unspecified), the inhibition was inactive: 1.71%.

As to `O=C(OC1CN2CCC1CC2)c1ccc([N+](=O)[O-])cc1` (stereo unspecified), the inhibition is inactive: -0.85%.

Consider `O=C(OCCN1CCN(CCOCc2ccccc2)CC1)C(O)(c1ccccc1)c1ccccc1`, for which the inhibition was inactive: 2.37%.

Regarding `COc1ccc2c(c1O)-c1c(O)c(OC)cc3c1[C@H](C2)[N+](C)(C)CC3.O=[N+]([O-])c1cc([N+](=O)[O-])c([O-])c([N+](=O)[O-])c1[O-]`, the inhibition is inactive: 0%.

Regarding `CP(=O)(Nc1ccccc1F)Oc1ccccc1` (stereo unspecified), the inhibition is inactive: 0.06%.

Consider `CC(C)c1ccc(OP(C)(=O)Nc2ccc(SC(F)(F)F)cc2)cc1` (stereo unspecified), for which the inhibition is inactive: 5.83%.

Take `CCN(CC)CCCOC(=O)C(O)(c1ccccc1)C1CCCCC1` (stereo unspecified): the inhibition is inactive: -0.68%.

Take `CP(=O)(Nc1ccccc1)Oc1ccc(F)cc1` (stereo unspecified): the inhibition was inactive: 2.04%.

With `O=[N+]([O-])c1cc([N+](=O)[O-])c(OC2CCCCC2O)c([N+](=O)[O-])c1` (stereo unspecified), the inhibition was inactive: 0.71%.

Regarding `CCCCCOc1ccc(NP(C)(=O)Oc2ccc(Cl)cc2Cl)cc1` (stereo unspecified), the inhibition was inactive: 5.31%.

Take `CCOC(=O)c1ccc(NP(C)(=O)Oc2ccc(F)cc2)cc1` (stereo unspecified): the inhibition was inactive: -0.79%.

`COc1ccc(OP(C)(=O)Nc2ccc(SC(F)(F)F)cc2)cc1` (stereo unspecified): the inhibition is inactive: 2.13%.

For the compound `O=[N+]([O-])c1cc([N+](=O)[O-])c(NCC2CCS(=O)(=O)C2)c([N+](=O)[O-])c1` (stereo unspecified), the inhibition was inactive: -0.44%.

On to `COc1ccc(OP(C)(=O)Nc2cccc(Br)c2)cc1` (stereo unspecified), for which the inhibition was inactive: 1.49%.

Turning to `CN(C)CCOC(=O)C(O)(c1ccccc1)C1CCCCC1` (stereo unspecified), the inhibition was inactive: 0.91%.

With `COc1ccc(NP(C)(=O)Oc2ccccc2OC)cc1` (stereo unspecified), the inhibition is inactive: -0.47%.

For `CP(=O)(Nc1ccc2c(c1)OCCO2)Oc1ccccc1` (stereo unspecified), the inhibition was inactive: -2.4%.

Turning to `Cc1ccccc1NP(C)(=O)Nc1ccccc1C`, the inhibition was inactive: 2.16%.

Regarding `CP(=O)(Nc1ccc(SC(F)(F)F)cc1)Oc1ccc(F)cc1` (stereo unspecified), the inhibition was inactive: 5.12%.

As to `CCOP(C)(=S)SCC(=O)NC(C)(CC)C(=O)O` (stereo unspecified), the inhibition was inactive: -1.42%.

`O=[N+]([O-])c1cc([N+](=O)[O-])c(-c2cnn(-c3ccccc3)c2)c([N+](=O)[O-])c1`: the inhibition is inactive: 2.82%.

In the case of `Cc1nc2ccc3ccccc3c2s1.O=[N+]([O-])c1cc([N+](=O)[O-])c(O)c([N+](=O)[O-])c1`, the inhibition is inactive: 0.83%.

Take `O=[N+]([O-])c1cc([N+](=O)[O-])c(-n2nnc3ccccc32)c([N+](=O)[O-])c1`: the inhibition was inactive: -1.49%.

Regarding `CN1CCCCC1COC(=O)C1(O)c2ccccc2CCc2ccccc21` (stereo unspecified), the inhibition is inactive: 1.58%.

`COc1ccccc1OP(C)(=O)Nc1c(C)cccc1C` (stereo unspecified): the inhibition is inactive: 0.8%.

For `CCCOc1ccc(NP(C)(=O)Oc2ccc(Cl)cc2)cc1` (stereo unspecified), the inhibition is inactive: 2.94%.

On to `CP(=O)(Nc1ccc(SC(F)(F)F)cc1)Oc1ccccc1` (stereo unspecified), for which the inhibition is inactive: 2.89%.

`CC1=C2N=C(C=C3N=C(C(C)=C4[N-][C@@](C)([C@@H]5N=C1[C@](C)(CCC(=O)NC[C@@H](C)OP(=O)([O-])O[C@H]1[C@@H](O)[C@@H](n6cnc7cc(C)c(C)cc76)O[C@@H]1CO)[C@H]5CC(N)=O)[C@@](C)(CC(N)=O)[C@@H]4CCC(N)=O)[C@@](C)(CC(N)=O)[C@@H]3CCC(N)=O)C(C)(C)[C@@H]2CCC(N)=O.[C-]#N.[Co+3]`: the inhibition was inactive: 1.24%.

For the compound `O=[N+]([O-])c1cc([N+](=O)[O-])c(Nc2nnnn2CCO)c([N+](=O)[O-])c1`, the inhibition is inactive: 2.34%.

For the compound `CCOC(=O)C(CC)C1=NC(C)(C)Cc2ccccc21.O=[N+]([O-])c1cc([N+](=O)[O-])c(O)c([N+](=O)[O-])c1` (stereo unspecified), the inhibition is inactive: -2.13%.

For the origin of these results see PubChem BioAssay AID1987 (The Scripps Research Institute Molecular Screening Center, 2009).
